## Measured affinities in a library of Ab-95 light chain variants

Target: peptide PDVDLGDISGINAS, taken from heptad repeat 2 (HR2) of SARS-CoV-2 spike.

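The starting antibody came from a phage panning campaign against this peptide. Variants in AAYL52 differ from the parent at up to three CDR positions; double and triple changes were sampled at random. In AlphaSeq, yeast of one mating type display the scFv and yeast of the other type display the target. The frequency of each diploid, read from paired DNA barcodes, reflects how well the two displayed proteins bind. A regression on co-assayed BCL2-family reference pairs converts the normalised counts of each replicate to an apparent Kd. The assay was run in three technical replicates.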

The variants keep the heavy chain, the linker and the frameworks of Ab-95 (scFv order VH, the linker GGGGSGGGGSGGGGS, VL).
VH: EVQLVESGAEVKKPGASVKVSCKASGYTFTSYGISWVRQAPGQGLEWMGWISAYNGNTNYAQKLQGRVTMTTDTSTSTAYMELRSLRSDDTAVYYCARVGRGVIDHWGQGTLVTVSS
VL: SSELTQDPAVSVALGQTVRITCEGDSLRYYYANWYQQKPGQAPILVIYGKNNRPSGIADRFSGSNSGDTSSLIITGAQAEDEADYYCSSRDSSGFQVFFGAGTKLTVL

Positions count from residue 1 of the parent VL; D25K puts K in place of D.
All variants listed here change Y30 of the VL, counted from its first residue.
Values are apparent Kd, the geometric mean of the replicates that gave a signal; lower means stronger binding.
"nd" means that the variant was in the library but no mating with the target was seen in any replicate; the authors take this as a sign of poor binding, and no number exists.
Empty control strains, which show no peptide, gave a signal in 28% of pairings with library AAYL52; the median was 8.2 µM and 95% of these signals were weaker than 800 nM. No background was subtracted. For each scFv, signals with the empty controls are counted beside the result.
For reference, the parent read 200 nM as the reference entry and 180 nM as a member of this library.

For D25K+Y30R+A32C, the assay gave 130 nM (3 of 3 replicates; controls 5 of 9). The variant Y30S+G49K+S89V gave 120 nM (3 of 3 replicates; controls 1 of 9). With Y30Q+N52I+Q96G the result was 52 nM (3 of 3 replicates; controls 2 of 9). For Y30G+A32V+R90W, the assay gave 1.2 µM (1 of 3 replicates; controls 5 of 9). The variant S26K+Y30S+N33K showed 37 µM (3 of 3 replicates; controls 3 of 9). For D25K+Y30P+P54M, the assay gave 250 nM (3 of 3 replicates; controls 4 of 9). With S26T+Y29G+Y30I the result was 28 nM (3 of 3 replicates; controls 4 of 9). With D25P+Y30E+R90N the result was 63 nM (3 of 3 replicates; controls 4 of 9).

With L27S+Y30V+S89A the result was 320 nM (3 of 3 replicates; controls 3 of 9). The variant Y29I+Y30A+F95T gave 48 nM (3 of 3 replicates; controls 3 of 9). The variant Y30R+R90D+F95K showed nd (0 of 3 replicates; controls 2 of 9). The variant R28L+Y30E+F95V gave 95 nM (3 of 3 replicates; controls 3 of 9). The variant Y30R+R90E+S92K gave 420 nM (3 of 3 replicates; controls 4 of 9). With Y30W+N33C+S93H the result was 31 µM (1 of 3 replicates; controls 4 of 9). The variant E23K+Y30R gave 52 nM (3 of 3 replicates; controls 2 of 9). The variant Y30D gave 180 nM (3 of 3 replicates; controls 2 of 9).

The variant Y30E+S89H+F95A gave 200 nM (3 of 3 replicates; controls 1 of 9). With Y30A+S89F+Q96W the result was 1.5 µM (3 of 3 replicates; controls 2 of 9). The variant Y30S+F98D gave 83 nM (3 of 3 replicates; controls 3 of 9). With Y30C+Y31R+G94A the result was nd (0 of 3 replicates; controls 1 of 9). With Y30M+G49S+S93M the result was 97 µM (1 of 3 replicates; controls 1 of 9). The variant Y30C+S55K+S89W showed 1.6 µM (3 of 3 replicates; controls 2 of 9). The variant Y30A+S55C+Q96G gave 1.9 µM (3 of 3 replicates; controls 2 of 9). The variant Y30V+G94R showed 150 nM (3 of 3 replicates; controls 4 of 9).

The variant Y30S+A32K+N52V showed 860 nM (3 of 3 replicates; controls 6 of 9). For Y30H+S89L+G94F, the assay gave 610 nM (3 of 3 replicates; controls 3 of 9). With Y30C+G49Q+S88Q the result was 4.5 µM (1 of 3 replicates; controls 3 of 9). With Y29M+Y30D+N52G the result was 310 nM (3 of 3 replicates; controls 1 of 9). For Y30C+S92L+F98L, the assay gave 240 nM (3 of 3 replicates; controls 4 of 9). With Y30Q+Y31F+G49M the result was 150 nM (3 of 3 replicates; controls 1 of 9). The variant L27S+Y30K+F95L showed 1.9 µM (1 of 3 replicates; controls 2 of 9). The variant Y30V+S88K+Q96I gave 72 nM (3 of 3 replicates; controls 4 of 9).

The variant Y30Q+V97F gave 20 nM (3 of 3 replicates; controls 2 of 9). For G24A+Y30F, the assay gave 2.7 µM (1 of 3 replicates; controls 2 of 9). For Y30V+S88M, the assay gave 39 nM (3 of 3 replicates; controls 3 of 9). The variant D25C+Y30C+N33L gave 10 µM (3 of 3 replicates; controls 5 of 9). The variant Y30K+K50P+F98W gave 6.0 nM (3 of 3 replicates; controls 7 of 9). For Y30C+R90G+Q96N, the assay gave 580 µM (1 of 3 replicates; controls 4 of 9). For Y30S+R53L+G94D, the assay gave 7.9 nM (3 of 3 replicates; controls 0 of 9). The variant Y30Q+Y31M+F98T showed 29 nM (3 of 3 replicates; controls 4 of 9).

For Y30C+D91E+V97L, the assay gave 1.9 µM (3 of 3 replicates; controls 4 of 9). The variant Y30F+Y31D+N51E gave 34 nM (3 of 3 replicates; controls 7 of 9). The variant Y30L+Y31F+F95P gave 7.6 µM (3 of 3 replicates; controls 7 of 9). For Y30I+A32H+G49A, the assay gave 150 µM (1 of 3 replicates; controls 2 of 9). The variant E23A+Y30I+S55E showed 70 nM (3 of 3 replicates; controls 3 of 9). The variant Y30V+P54R+S93P showed 20 µM (1 of 3 replicates; controls 2 of 9). The variant Y30I+K50H+S93Y showed 2.9 µM (2 of 3 replicates; controls 4 of 9). The variant Y29T+Y30G+K50H gave 7.7 nM (3 of 3 replicates; controls 4 of 9).

Picked from the list: the 6 lowest averages where every replicate gave a value.

changes	Kd (apparent)	replicates with signal	signal with controls
Y30K+K50P+F98W	6.0 nM	3/3	7/9
Y29T+Y30G+K50H	7.7 nM	3/3	4/9
Y30S+R53L+G94D	7.9 nM	3/3	0/9
Y30Q+V97F	20 nM	3/3	2/9
S26T+Y29G+Y30I	28 nM	3/3	4/9
Y30Q+Y31M+F98T	29 nM	3/3	4/9

From the AlphaSeq antibody data of Engelhart et al. 2022 (doi:10.1038/s41597-022-01779-4), copy in the FLAb collection.